System: Trex-CHO CB1 receptor cells, WIN55,212 induced ERK phosphorylation
Assay: ERK activation assay (western blot)
Settings: IgG 300 nM, WIN55,212 100 nM

## Cc1c(C(=O)NN2CCCCC2)nn(-c2ccc(Cl)cc2Cl)c1-c1ccc(Cl)cc1 [Rimonabant, reference compound]
  blocking of WIN55,212 induced ERK phosphorylation: inhibited

— patent US10308712B2, “Antibodies that bind human cannabinoid 1 (CB1) receptor” (priority 2014, dated 2019)
